The source of these data is patent US20240083981A1, “TREATMENT OF HERPES SIMPLEX VIRUS INFECTION” (priority 2022, published 2024).

Experiment [1] addresses glycoprotein D (gD) of herpes simplex virus-2 (HSV-2), on infectious virus (herpes simplex virus-2 (HSV-2)) (UniProt P03172). The experiment in a line: cell-based or functional assay.
Experiment [2] addresses glycoprotein D (gD) of herpes simplex virus-1 (HSV-1), on infectious virus (herpes simplex virus-1 (HSV-1)) (UniProt Q69091). The experiment in a line: cell-based or functional assay.

In experiment [1], UB-621 (anti-HSV-gD mAb) (antibody) displayed an IC50, inhibition of clinical isolate HSV-2 Bethesda (cell viability assay, Vero cells) of 13.6 nM; an IC50, inhibition of clinical isolate HSV-2 IC (ACV-resistant; cell viability assay, Vero cells) of 11.4 nM; an IC50, inhibition of clinical isolate HSV-2 JA-1 (cell viability assay, Vero cells) of 4.31 nM; an IC50, inhibition of clinical isolate HSV-2 JA-2 (cell viability assay, Vero cells) of 12.7 nM. In experiment [1], the IC50, inhibition of clinical isolate HSV-2 JA-3 (cell viability assay, Vero cells) was 18.3 nM; the IC50, inhibition of clinical isolate HSV-2 MO (cell viability assay, Vero cells) was 8.05 nM; the IC50, inhibition of clinical isolate HSV-2 poly-mut (polymerase mutant; cell viability assay, Vero cells) is 27.1 nM; the IC90, inhibition of clinical isolate HSV-2 Bethesda (cell viability assay, Vero cells) is 22.4 nM. In addition, in experiment [1], the IC90, inhibition of clinical isolate HSV-2 IC (ACV-resistant; cell viability assay, Vero cells) came out at 20.9 nM; the IC90, inhibition of clinical isolate HSV-2 JA-1 (cell viability assay, Vero cells) is 18.2 nM; the IC90, inhibition of clinical isolate HSV-2 JA-2 (cell viability assay, Vero cells) stood at 26.7 nM; the IC90, inhibition of clinical isolate HSV-2 JA-3 (cell viability assay, Vero cells) was 31.6 nM. In experiment [1], this substance yielded an IC90, inhibition of clinical isolate HSV-2 MO (cell viability assay, Vero cells) of 15.2 nM and an IC90, inhibition of clinical isolate HSV-2 poly-mut (polymerase mutant; cell viability assay, Vero cells) of 69.8 nM. In experiment [2], this substance yielded an IC50, inhibition of clinical isolate HSV-1 Bethesda (cell viability assay, Vero cells) of 1.87 nM; an IC50, inhibition of clinical isolate HSV-1 RH (cell viability assay, Vero cells) of 2.38 nM; an IC90, inhibition of clinical isolate HSV-1 Bethesda (cell viability assay, Vero cells) of 9.52 nM; an IC90, inhibition of clinical isolate HSV-1 RH (cell viability assay, Vero cells) of 6.14 nM. The substance further came in with an inhibition of cell-to-cell spread, plaque formation by HSV-1 gE-GFP reporter virus in Vero cells in experiment [2] of 1000 nM.
